Protein sequences, listed by entry. Tags and fused reporters are not part of them. Lines headed by an entry give the natural chain unless they say otherwise; changes in a name come on top.
UniProt Q16602: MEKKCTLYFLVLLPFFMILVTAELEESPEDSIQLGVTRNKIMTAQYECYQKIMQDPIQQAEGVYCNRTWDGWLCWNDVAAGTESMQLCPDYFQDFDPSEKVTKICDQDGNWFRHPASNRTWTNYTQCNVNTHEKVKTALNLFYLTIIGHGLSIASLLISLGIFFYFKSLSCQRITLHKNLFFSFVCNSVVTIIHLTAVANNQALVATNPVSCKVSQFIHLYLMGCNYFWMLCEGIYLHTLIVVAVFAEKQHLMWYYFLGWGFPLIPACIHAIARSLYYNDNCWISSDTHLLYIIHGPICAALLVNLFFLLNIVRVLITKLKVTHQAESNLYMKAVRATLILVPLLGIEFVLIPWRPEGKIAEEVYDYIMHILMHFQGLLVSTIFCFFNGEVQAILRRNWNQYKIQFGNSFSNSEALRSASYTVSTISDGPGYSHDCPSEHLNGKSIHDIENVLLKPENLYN

According to ChEMBL document CHEMBL1137617, “Potent, orally bioavailable calcitonin gene-related peptide receptor antagonists for the treatment of migraine: discovery of N-[(3R,6S)-6-(2,3-difluorophenyl)-2-oxo-1- (2,2,2-trifluoroethyl)azepan-3-yl]-4- (2-oxo-2,3-dihydro-1H-imidazo[4,5-b]pyridin- 1-yl)piperidine-1-carboxamide (MK-0974)” (J Med Chem, 2007):

Assays:
Canis lupus familiaris = test: Oral bioavailability in dog at 1 mg/kg; settings: in vivo
[1] = molecular target: Calcitonin gene-related peptide type 1 receptor (Homo sapiens, UniProt Q16602); test: Ratio of IC50 for human CL receptor in E10 cells in presence of 50% human serum over IC50 for human CL receptor in E10 cells
[2] = Oral bioavailability in rat at 10 mg/kg; format: ADME, organism-based; settings: in vivo
How it was run: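 In rats, the oral dose of 10 mg/kg was given as a suspension in 1% aqueous methylcellulose.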

| SMILES | bioavailability (Canis lupus familiaris) | Ratio IC50 [1] | bioavailability [2] |
| --- | --- | --- | --- |
| O=C(N[C@@H]1CC[C@@H](c2cccc(F)c2F)CN(CCN2CCOCC2)C1=O)N1CCC(n2c(=O)[nH]c3ncccc32)CC1 | 1% | 1 |  |
| O=C(N[C@@H]1CC[C@@H](c2cccc(F)c2F)CN(CCOC(F)(F)F)C1=O)N1CCC(n2c(=O)[nH]c3ncccc32)CC1 | 7% | 6 |  |
| O=C1NC[C@H](c2cccc(F)c2F)CC[C@H]1NC(=O)N1CCC(n2c(=O)[nH]c3ncccc32)CC1 | 30% | 1.6 |  |
| CN1C[C@H](c2cccc(F)c2F)CC[C@@H](NC(=O)N2CCC(n3c(=O)[nH]c4ncccc43)CC2)C1=O | 60% | 2.8 |  |
| O=C(N[C@@H]1CC[C@@H](c2cccc(F)c2F)CN(CC2CC2)C1=O)N1CCC(n2c(=O)[nH]c3ncccc32)CC1 | 17% | 11 |  |
| O=C(N[C@@H]1CC[C@@H](c2cccc(F)c2F)CN(CC(F)F)C1=O)N1CCC(n2c(=O)[nH]c3ncccc32)CC1 | 11% | 3 |  |
| O=C(N[C@@H]1CC[C@@H](c2cccc(F)c2F)CN(Cc2ccccn2)C1=O)N1CCC(n2c(=O)[nH]c3ncccc32)CC1 | 12% | 5 | 12% |
